ChEMBL document CHEMBL1134461, “Hexahydrochromeno[4,3-b]pyrrole derivatives as acetylcholinesterase inhibitors” (J Med Chem, 2001)

Chains of the proteins cited; added tags and fusions are not shown. Lines headed by an entry give the natural chain unless they say otherwise; changes in a name come on top.
UniProt P22303: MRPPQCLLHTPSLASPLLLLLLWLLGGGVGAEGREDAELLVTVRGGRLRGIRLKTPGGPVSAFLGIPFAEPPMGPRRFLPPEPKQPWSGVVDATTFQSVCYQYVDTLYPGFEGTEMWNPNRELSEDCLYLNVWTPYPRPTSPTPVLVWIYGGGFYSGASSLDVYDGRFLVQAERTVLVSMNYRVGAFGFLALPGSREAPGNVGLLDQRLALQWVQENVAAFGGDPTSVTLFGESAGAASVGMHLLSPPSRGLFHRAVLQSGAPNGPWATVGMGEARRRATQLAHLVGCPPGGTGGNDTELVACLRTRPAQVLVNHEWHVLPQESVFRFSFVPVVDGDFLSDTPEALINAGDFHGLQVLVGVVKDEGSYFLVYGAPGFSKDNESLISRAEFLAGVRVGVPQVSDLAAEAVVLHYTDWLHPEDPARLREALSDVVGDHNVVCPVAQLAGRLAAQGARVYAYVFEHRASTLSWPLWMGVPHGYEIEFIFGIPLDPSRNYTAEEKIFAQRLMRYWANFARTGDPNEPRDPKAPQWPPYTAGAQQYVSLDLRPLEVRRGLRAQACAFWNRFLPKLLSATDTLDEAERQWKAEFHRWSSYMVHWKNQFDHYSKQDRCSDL

Molecular target: Acetylcholinesterase (Homo sapiens, UniProt P22303)

Structure (SMILES): CNC(=O)Oc1ccc2c(c1)[C@]1(C)CCN(C)[C@@H]1N2C
- k3: 9 min⁻¹
